Earlier results on one substance are cited in US12377034B2, “Method for dyeing keratinous material, comprising the use of an organosilicon compound, an effect pigment and a film-forming polymer II” (Henkel AG & Co. KGaA, priority 2019, dated 2025).

The conditions of the series: 25° C.

“3,4,5,6-tetrachloro-2-(1,4,5,8-tetrabromo-6-hydroxy-3-oxoxanthen-9-yl)benzoic acid [Acid Red 92]”: the solubility in water result is recorded as “greater than 10 g/L”.
